scFv variants of Ab-95 (light chain) against a SARS-CoV-2 spike peptide

All variants were tested on one target, the spike HR2 peptide PDVDLGDISGINAS (SARS-CoV-2).

The variants keep the heavy chain, the linker and the frameworks of Ab-95 (scFv order VH, a 15-residue (Gly4Ser)3 linker, VL).
VH: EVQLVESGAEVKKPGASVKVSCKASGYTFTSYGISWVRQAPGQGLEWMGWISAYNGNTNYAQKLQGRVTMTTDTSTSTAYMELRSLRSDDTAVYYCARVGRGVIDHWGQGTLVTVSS
VL: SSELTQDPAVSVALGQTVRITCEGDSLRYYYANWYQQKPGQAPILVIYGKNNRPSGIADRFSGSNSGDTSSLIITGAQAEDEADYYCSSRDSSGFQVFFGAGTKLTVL

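The starting antibody came from a phage panning campaign against this peptide. AAYL52 was designed without a model: most single CDR substitutions and a random sample of double and triple ones. Affinity was read by AlphaSeq, a pooled yeast mating assay with surface-displayed partners. Pairs that bind mate more often; barcode pairs of the diploids are counted by sequencing. Read counts were normalised to the haploid input and turned into Kd by a linear fit to BCL2-family pairs of known affinity, for each replicate. There are three technical replicates.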

The parent's light chain CDRs are EGDSLRYYYAN, GKNNRPS, SSRDSSGFQVF; each variant's own CDRs replace them letter for letter.
Affinities are written as log10 Kd with Kd in nM; a lower number is a better binder.
Averages over replicates are reported, and they cover detected replicates only.
A pair that was not seen in any replicate is written "no signal"; this usually means weak binding, but a binder can also be missed.
For reference, the parent read 2.31 as the reference entry and 2.25 as a member of this library.

CDR-L1,CDR-L2,CDR-L3,mean log10 Kd (nM),detected
EGDSLRYYYAN,GKNNRPS,SSRDSSGFDYF,2.42,3 of 3
EGDSLRYYYAN,GKNNRDK,SSRDSVGFQVF,4.55,3 of 3
EGDSLRYSYAN,GKNNRPK,YSRDSSGFQVF,2.15,3 of 3
EGDSLRYYYIN,GKGNRPS,YSRDSSGFQVF,4.19,2 of 3
EGDSLRYYYAP,NKNNRPS,SSRDSSGFQVF,no signal,0 of 3
EGDSLRYYYQN,GKWNRPS,SSRDSSGFRVF,4.26,1 of 3
EGDSLRYYYAN,GKNNRPS,SSRYSSTFQVY,3.65,1 of 3
EGDSLDYYMAN,GKNNRPS,SSRDSSGFQAF,1.91,3 of 3
EGPSLRYYYAN,GKNNRPR,SSRDSSGFQVM,3.24,2 of 3
EGDSLRYVYAN,GKNNTES,SSRDSSGFQVF,no signal,0 of 3
EGDSLRYYYAN,GKNWRPS,SSRDSSGSQAF,no signal,0 of 3
YGDSLSYYYAN,GKNNRES,SSRDSSGFQVF,3.09,3 of 3
EGDSKRYYYAN,GKNNRPS,SSRDSSGFQLT,no signal,0 of 3
EGDSLRYYYAN,GKNNRPS,SRRDHSGFQVF,4.49,3 of 3
EGDSLRYDYAN,GVNNRPS,SSRQSSGFQVF,3.56,1 of 3
EGDSLRYPYAN,GKNNRPS,SSRDSSDFQVF,2.09,3 of 3
EGDSRRYDYAN,GKNNRPS,SSRDSSGFQVF,2.17,3 of 3
EGDPLRYYYAN,IKNNRPS,SSRDSSLFQVF,3.84,1 of 3
EGDSKRYYYAN,GKNNRPS,SSRDSSGDQVF,3.28,3 of 3
EGDVLRYYYAN,GKNNRPS,SSRKSSSFQVF,4.29,3 of 3
WGDSLRYYAAN,GKNNRPS,SSRDSSGAQVF,1.98,3 of 3
EGDSLRYYPAG,AKNNRPS,SSRDSSGFQVF,4.57,2 of 3
EGDSLRYYYAN,GGNNRPS,SSRQCSGFQVF,3.26,3 of 3
EGDSLRTYYAN,GKNNRPS,DSNDSSGFQVF,2.90,1 of 3
EGDSLRYYYAN,WKNNRPL,SSRDSVGFQVF,3.66,2 of 3
EGDSLEYYYAN,GKNNRKS,SSRYSSGFQVF,no signal,0 of 3
EGDSLRERYAN,GKNNRPS,FSRDSSGFQVF,2.43,3 of 3
EGDGLRYYYAN,GKNNRPS,SSRDSSGFQCR,1.76,3 of 3
EGDSLRYYDAN,GKANRPS,SSRDSSAFQVF,1.72,3 of 3
EYPSLRYYYAN,GKNNRPS,SSRDSSGIQVF,5.01,2 of 3
EGDYLRYYYAN,GKNNCPS,SSRDSNGFQVF,4.49,2 of 3
GGDSLRYYYAN,GKNNRPS,SSRHSWGFQVF,1.76,3 of 3
EGDSLRVAYAN,GKNNRPA,SSRDSSGFQVF,0.93,3 of 3
YGDSLRYYYAN,GKNNRPS,SSRMFSGFQVF,4.37,1 of 3
EGDHLRYYYAG,GKNNRPS,SSRDSSGRQVF,3.61,1 of 3
EGDSHRYYYHN,GKNNRPW,SSRDSSGFQVF,4.25,3 of 3
EGDSLRYGYAN,GKNNRPS,SNRDPSGFQVF,0.80,3 of 3
EGDSLQYCYAS,GKNNRPS,SSRDSSGFQVF,2.25,3 of 3
EGDSLRYYYAN,GGNNRPS,SSRDSSGFGVF,2.03,3 of 3
EGDSLRYVYWN,GKNNRPS,WSRDSSGFQVF,no signal,0 of 3
EGDSLRYYIAN,GKNNRPT,SSRDSGGFQVF,5.10,2 of 3
YGDSLRYYYAN,GINNRPS,SSRNSSGFQVF,3.72,2 of 3
MGDSLRYYYAN,GKENRPS,SSHDSSGFQVF,2.94,3 of 3
EGDSLRYYHQN,GKNNRPS,SSRDWSGFQVF,4.25,1 of 3
EGDGLRYYYAV,GKNNRPS,SSRDDSGFQVF,4.05,2 of 3
EGQSLRYYYAN,GKNNRPA,SSRGSSGFQVF,2.86,3 of 3
NGDELRYYYMN,GKNNRPS,SSRDSSGFQVF,no signal,0 of 3
VGDSWRYYYAN,GKNNRPS,SSRDSSGNQVF,2.57,3 of 3
EGDSLRYYYAN,GKNNRPD,SSRDSSGQQVC,3.92,3 of 3
EGDSLRYYYLN,PKNNRPS,SSIDSSGFQVF,3.46,1 of 3
EGHSSRYYYAN,GKNNRSS,SSRDSSGFQVF,3.09,1 of 3
FGDSLRYYYAN,GKNNRPS,SSRDSSGFDVM,2.97,3 of 3
EGDSDRYYYCN,GKNNRPS,SSRDSSGFPVF,4.01,2 of 3
EGDSLRYYYAM,GKYNRPS,SSRISSGFQVF,4.16,2 of 3
RGDSLRYYYAN,TKNNRPS,SSRDSSGFQVV,3.62,2 of 3
EMDSLRYYYAN,GKNNRPS,SSRDSSRFPVF,4.01,3 of 3
EGDSLRYYYAN,NKNGRPS,SSRDSSMFQVF,2.46,1 of 3
EGDSLRYYYLN,GKNNRPS,SPRDSIGFQVF,3.75,1 of 3
EGDSLRTYQAN,GKNNRPS,SSRDSSGFQWF,1.26,3 of 3
EWDSLRYYYAN,GKVNRPS,SGRDSSGFQVF,3.37,1 of 3
EGDSLRYYYSN,GKEIRPS,SSRDSSGFQVF,3.37,1 of 3
EGDHLRYYYAT,GKNNRPS,SSRDSMGFQVF,3.58,1 of 3
EGDSLEFEYAN,GKNNRPS,SSRDSSGFQVF,1.16,3 of 3
EGDSLRYYYAN,GLNNRPS,SSADSSGFQVF,2.78,3 of 3
EGDSLRYYYAN,GKWNRPS,SSRDSSGGHVF,3.58,1 of 3
EGDFLRYSYAN,GKNNRPS,SSRDSSGFQVF,1.37,3 of 3
NGDSLCYYYAN,GKNNRPI,SSRDSSGFQVF,3.40,3 of 3
EGDSLRYYYAN,GKNNRDS,SSIDSQGFQVF,3.00,3 of 3
TGDSLRYYYAN,GKNNRPS,SSRESSGFQVK,no signal,0 of 3
EGDSLRYYYAN,GKNNRLS,SNRDSSGFQVV,3.81,1 of 3
EGWSARYYYAN,AKNNRPS,SSRDSSGFQVF,4.15,2 of 3
TADSLRYYYAN,GKNNRPF,SSRDSSGFQVF,2.40,3 of 3
EGDSLRYYYAN,RKNNRPS,SSRDSSGTRVF,4.31,1 of 3
EGDSLRYYYAY,GKKLRPS,SSRDSSGFQVF,no signal,0 of 3
EGDSLRYYYAN,CKNNFPS,RSRDSSGFQVF,no signal,0 of 3
EGDSLRYYYAN,GKNNAPS,SMRDSSGAQVF,3.65,1 of 3
EGDSLRYYLAN,MCNNRPS,SSRDSSGFQVF,no signal,0 of 3
EGDSPRYYSAN,GKNNRPS,SSRESSGFQVF,3.34,1 of 3
DGDLLRYYYAN,GKNNRPS,VSRDSSGFQVF,4.31,1 of 3

The opening 8 entries, copied out:

CDR-L1,CDR-L2,CDR-L3,mean log10 Kd (nM),detected
EGDSLRYYYAN,GKNNRPS,SSRDSSGFDYF,2.42,3 of 3
EGDSLRYYYAN,GKNNRDK,SSRDSVGFQVF,4.55,3 of 3
EGDSLRYSYAN,GKNNRPK,YSRDSSGFQVF,2.15,3 of 3
EGDSLRYYYIN,GKGNRPS,YSRDSSGFQVF,4.19,2 of 3
EGDSLRYYYAP,NKNNRPS,SSRDSSGFQVF,no signal,0 of 3
EGDSLRYYYQN,GKWNRPS,SSRDSSGFRVF,4.26,1 of 3
EGDSLRYYYAN,GKNNRPS,SSRYSSTFQVY,3.65,1 of 3
EGDSLDYYMAN,GKNNRPS,SSRDSSGFQAF,1.91,3 of 3

Nonspecific signal, from three strains lacking the peptide, appeared in 28% of pairings of library AAYL52, centred on 3.91 (5% of these signals below 2.90); values are not corrected for it.

Values reported by Engelhart et al. 2022, doi:10.1038/s41597-022-01779-4 (FLAb copy).